pEC50: −log10 of the molar value.
Legend:
[1] = biological target: T1, His6-mAf1521 (Archaeoglobus fulgidus, UniProt O28751); assay: Pull-down displacement assay: free ADP-ribose added after pull-down of [32P]-ADP-ribosylated β subunit by resin-bound His6-mAf1521; format: binding; conditions: "displacement" conditions; ADP-ribose added after pull-down by 30 pmole His6-mAf1521; 4 h at room temperature
T1 construct: made in house
T1 sequence (O28751 1-192): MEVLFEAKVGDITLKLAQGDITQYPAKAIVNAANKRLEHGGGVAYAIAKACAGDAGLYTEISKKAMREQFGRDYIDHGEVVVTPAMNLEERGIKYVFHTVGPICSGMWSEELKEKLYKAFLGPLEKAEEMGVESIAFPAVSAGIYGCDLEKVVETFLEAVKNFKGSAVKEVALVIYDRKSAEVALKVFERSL
Protocol: (§1) The ADP-ribosyltransferase activity was measured by following the incorporation of radioactive ADP-ribose into membrane proteins, as previously described^19, with some modifications. Samples (10 µg plasma membranes) were incubated with 50 µl ADP-ribosylation buffer (50 mM potassium phosphate buffer (PFB), pH 7.4, 5 mM MgCl2, 4 mM dithiothreitol (DTT), 10 µM GTPγS, 700 µM β-NAD^+ and 4.5 µCi [^32P]-NAD (specific activity: 1,000 Ci/mmol)) at 37 °C for 60 min, unless otherwise specified. Under these conditions, 10% of the total β was mono-ADP-ribosylated; to obtain maximal modification (80%-100% of total β mono-ADP-ribosylated), the incubation was prolonged to 12 h at 30 °C. […]
(§2) Plasma membranes (10 µg for each sample) were ADP-ribosylated as described above, washed with 50 mM PFB, pH 7.4, to remove unbound NAD, and then centrifuged at 16.000x g for 15 min at 4 °C. […] Then the resin was washed three times with RIPA buffer plus 10 mM imidazole, and finally both the washed resin and the unbound fraction (one-eight of the total volume) were diluted in 50 µl Laemmli buffer, boiled and analysed by 10% SDS-PAGE. […] The gels underwent colloidal Coomassie blue (blue code, Pierce) or silver staining, and the bands of interest were analysed by MALDI-TOF-MS. […]

[2] = biological target: T1, His6-mAf1521; assay: Pull-down competition assay: free ADP-ribose added together with His6-mAf1521 to [32P]-ADP-ribosylated β subunit; format: binding; conditions: read-out: ADP-ribose EC50; "competition" conditions; 30 pmole His6-mAf1521; 2 h at room temperature; curve fitting with GraphPad PRISM
Protocol: as §1, §2

A pEC50 [1] of 5.00 and a pEC50 [2] of 5.30 were found for ADP-ribose in this work.
